For 4 compounds, EC50 results are on record in ChEMBL document CHEMBL4837250, “Discovery of LYC-55716: A Potent, Selective, and Orally Bioavailable Retinoic Acid Receptor-Related Orphan Receptor-γ (RORγ) Agonist for Use in Treating Cancer” (J Med Chem, 2021).

The target in this experiment is T1, Nuclear receptor subfamily 1 group I member 2 (Homo sapiens, UniProt O75469).
T1 sequence (O75469 whole entry): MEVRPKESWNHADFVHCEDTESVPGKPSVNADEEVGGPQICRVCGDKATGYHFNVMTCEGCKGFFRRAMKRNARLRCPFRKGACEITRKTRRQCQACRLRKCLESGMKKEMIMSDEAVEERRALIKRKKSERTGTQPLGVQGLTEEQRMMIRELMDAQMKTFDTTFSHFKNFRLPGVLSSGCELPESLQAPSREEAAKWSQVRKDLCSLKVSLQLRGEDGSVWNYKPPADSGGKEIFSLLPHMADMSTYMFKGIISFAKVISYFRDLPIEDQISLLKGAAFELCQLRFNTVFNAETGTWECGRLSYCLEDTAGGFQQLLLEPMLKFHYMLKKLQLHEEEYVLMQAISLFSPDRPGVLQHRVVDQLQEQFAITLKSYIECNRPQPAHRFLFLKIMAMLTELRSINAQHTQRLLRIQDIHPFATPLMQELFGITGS
The term EC50 denotes the concentration at which the effect is half-maximal. A high value points to weaker potency. Consider `O=C(O)C1(C[C@H]2CN(S(=O)(=O)c3cccc(C(F)(F)F)c3)c3cc(-c4cc(F)cc(OC(F)F)c4)ccc3O2)COC1`, for which the EC50 is 5.46 µM.
With `O=C(O)CC[C@H]1CN(S(=O)(=O)c2cccc(C(F)(F)F)c2)c2cc(/C=C/c3c(Cl)cccc3C(F)(F)F)ccc2O1` the figure was 2 µM; with `C/C(=C\c1ccc2c(c1)N(S(=O)(=O)c1cccc(C(F)(F)F)c1)C[C@H](CCC(=O)O)O2)c1ccccc1C`, 5 µM.
The compound `CC(C)(C[C@H]1CN(S(=O)(=O)c2cccc(C(F)(F)F)c2)c2cc(-c3cc(F)cc(OC(F)F)c3)ccc2O1)C(=O)O` [CINTIRORGON] returned a 50% effective concentration (EC50) of 8 µM.
